We go through one sequence from ChEMBL document CHEMBL1134594 (J Med Chem, 2001).

The assay addresses Adenylate cyclase (Rattus norvegicus) (UniProt D4A3N4+P26770+Q04400+P26769+Q03343+P40146+Q8CFM9+P21932). The assay is described as follows: Adenylate cyclase activity measured as percentage stimulation. The assay is classed as protein assay. Also noted: concentration or dose not given beside the values.

GLUCAGON showed an Activity of 100%.
